Data on five proteins can be found in patent publication US20160319265.

The target of this data set is TEV substrate.

Residue numbers refer to the chain shown, from its start. Names may count otherwise.

B1: unnamed (protein)
chain: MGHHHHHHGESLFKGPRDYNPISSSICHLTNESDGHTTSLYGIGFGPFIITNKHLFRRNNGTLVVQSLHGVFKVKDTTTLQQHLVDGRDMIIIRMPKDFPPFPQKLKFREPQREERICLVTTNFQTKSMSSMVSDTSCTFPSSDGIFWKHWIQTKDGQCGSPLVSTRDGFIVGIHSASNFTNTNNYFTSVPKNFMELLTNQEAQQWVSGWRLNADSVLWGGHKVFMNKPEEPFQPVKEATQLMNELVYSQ
For B1, the TEV Substrate Cleavage (%), 30 minute amounted to 90.8%; the TEV Substrate Cleavage (%), 60 minute came to 96.8%; the TEV Substrate Cleavage (%), 120 minute stood at 97.2%.

B2: TEV protease variant 3 (S219N, T17S, N68D, I77V; N-terminal poly-histidine tag) (protein)
chain: B1 chain with V64L
As for B2, the TEV Substrate Cleavage (%), 30 minute was found to be 96.5%; the TEV Substrate Cleavage (%), 60 minute is 97.7%; the TEV Substrate Cleavage (%), 120 minute was 98.1%.

B3: unnamed (protein)
chain: B1 chain with V64L, S143G
B3: the TEV Substrate Cleavage (%), 30 minute is 96.6%; the TEV Substrate Cleavage (%), 60 minute was found to be 97.8%; the TEV Substrate Cleavage (%), 120 minute is 97.7%.

B4: TEV protease variant 5 (S219N, L56V, N68D, S135G; N-terminal poly-histidine tag) (protein)
chain: B1 chain with S25T, V85I, S143G
Take B4: the TEV Substrate Cleavage (%), 30 minute stood at 95.6%; the TEV Substrate Cleavage (%), 60 minute stood at 97.8%; the TEV Substrate Cleavage (%), 120 minute was found to be 95.6%.

B5: unnamed (protein)
chain: B1 chain with N52V, S143G
The protein B5 came in with a TEV Substrate Cleavage (%), 30 minute of 74.2%; a TEV Substrate Cleavage (%), 60 minute of 93.3%; a TEV Substrate Cleavage (%), 120 minute of 96.1%.
